Structures are written as SMILES.

The record followed here is BindingDB's records for doi:10.1111/j.1747-0285.2010.00965.x (Ataturk University, 2010).

This test concerns the target Carbonic anhydrase 2 (Homo sapiens, UniProt P00918). The experiment in a line: Esterase Activity Assay. To be noted: pH 7.4; 25 °C.

`O=C(O)c1ccc(O)cc1` [4-Hydroxybenzoate, III] registered a Ki of 675 µM.
